## Measured affinities in a library of Ab-95 light chain variants

The measurements come from Engelhart et al. 2022 (doi:10.1038/s41597-022-01779-4) through the FLAb antibody collection.

Binding partner: SARS-CoV-2 spike HR2 peptide, sequence PDVDLGDISGINAS.

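Library AAYL52 holds single substitutions and randomly drawn double and triple substitutions in the CDRs. Affinity was read by AlphaSeq, a pooled yeast mating assay with surface-displayed partners. Mating (16 h, 30 °C) was followed by selection of diploids and sequencing of their barcodes. Scores were corrected for input abundance and mapped to Kd with protein pairs of known affinity run in the same pool. Mating was done three times.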

Ab-95 is the parent antibody, in scFv form: VH, then three GGGGS repeats, then VL. The heavy chain is unchanged in all variants.
VH: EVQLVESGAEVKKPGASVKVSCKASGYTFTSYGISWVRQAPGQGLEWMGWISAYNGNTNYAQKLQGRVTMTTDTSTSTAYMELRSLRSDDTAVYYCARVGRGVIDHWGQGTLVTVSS
VL: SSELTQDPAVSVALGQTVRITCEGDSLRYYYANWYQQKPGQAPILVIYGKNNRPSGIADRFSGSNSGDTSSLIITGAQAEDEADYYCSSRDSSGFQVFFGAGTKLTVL

Substitutions are numbered in sequence along the VL above, starting at 1 (not Kabat). Scale: log10 of Kd in nM, estimated from mating counts; low values are strong binders. The mean shown is taken over the replicates in which the pair was detected. "not detected" marks a missing value. The strain was present, yet no cells mated with the target were sequenced in any replicate, which points to weak or no binding.

changes | mean log10 Kd (nM) | detected
N51V+S92K+V97I | 3.60 | 3 of 3
S26M+L27E | 2.59 | 3 of 3
S26P+Y31R | 2.64 | 3 of 3
A32E+S55Q+R90E | 3.94 | 1 of 3
G24F+V97H+F98H | not detected | 0 of 3
K50P+Q96T+F98H | 2.30 | 3 of 3
N51D+R53H+S89V | 3.08 | 3 of 3
K50E+N52L+R90P | 1.38 | 3 of 3
N51D+R90D+G94E | 4.13 | 2 of 3
S26P+S92W+S93P | 3.15 | 3 of 3
N33C+F95C+V97I | not detected | 0 of 3
E23I+F95H+F98W | 3.21 | 2 of 3
E23N+F95Q+Q96V | 2.61 | 3 of 3
K50Y+S89K+F98G | 3.24 | 3 of 3
D25A+L27H+S89R | 3.53 | 3 of 3
E23N+Q96L | 2.87 | 3 of 3
G49C+R53M+P54S | 3.96 | 2 of 3
E23S+G24F+N33Q | not detected | 0 of 3
R53C+S89C+S92L | 4.71 | 2 of 3
Y29V+G49W+F95D | not detected | 0 of 3
L27Y+R90E+S93G | 3.49 | 1 of 3
Y29A+A32E+S93E | not detected | 0 of 3
L27V+S89I+G94T | 4.22 | 1 of 3
D91P+S92Y+V97E | 4.48 | 2 of 3
D25Y+R90Q+S92K | not detected | 0 of 3
D91W+S93V+Q96T | 2.70 | 3 of 3
S89I+S92K+S93R | 2.04 | 3 of 3
R28H+Y29F+R90Q | 3.50 | 2 of 3
Y31K+D91N+S92A | 2.99 | 1 of 3
R53L+S89K | 3.51 | 1 of 3
S89D+G94K+V97K | not detected | 0 of 3
Y29W+S55F+D91T | 3.75 | 3 of 3
R28C+A32N+N33C | 4.77 | 2 of 3
S26F+S93L+G94L | not detected | 0 of 3
L27S+S55R+S89E | not detected | 0 of 3
S88G+D91Q+F95T | 2.89 | 1 of 3
D25F+G49A+S88P | 3.79 | 1 of 3
N33D+N52M+G94A | 4.02 | 2 of 3
Y29P+R90C+G94D | 3.25 | 3 of 3
E23V+L27R | 3.38 | 1 of 3
D25V+N51W+F95A | 4.64 | 3 of 3
N52H+G94R+V97H | not detected | 0 of 3
Y30D+R53D+S92I | not detected | 0 of 3
Y29M+A32Y+N33L | 4.24 | 2 of 3
Y30L+F95K | 3.74 | 3 of 3
G24E+N33Y+R90N | 3.25 | 1 of 3
K50M+S93C+V97L | 2.35 | 3 of 3
E23W+Y29S+S88A | 2.94 | 3 of 3

The closing 7 entries, repeated:

changes,mean log10 Kd (nM),detected
N52H+G94R+V97H,not detected,0 of 3
Y30D+R53D+S92I,not detected,0 of 3
Y29M+A32Y+N33L,4.24,2 of 3
Y30L+F95K,3.74,3 of 3
G24E+N33Y+R90N,3.25,1 of 3
K50M+S93C+V97L,2.35,3 of 3
E23W+Y29S+S88A,2.94,3 of 3

Nonspecific signal, from three strains lacking the peptide, appeared in 28% of pairings of library AAYL52, centred on 3.91 (5% of these signals below 2.90); values are not corrected for it. Parent in this assay: reference entry 2.31, copy in this library 2.25.